The values that follow come from US20040097408A1, “Compounds regulating cell proliferation and differentiation” (priority 2001, published 2004).

The subject of the data set is mice. Nature of the data set: tolerability of intraperitoneal F16 in mice. The conditions noted are these: doses of 12.5 and 25 mg/kg.

Turning to `C[n+]1ccc(/C=C/c2c[nH]c3ccccc23)cc1.[I-]` [F16], the tolerability entry is listed as “well tolerated”.
